Measured values from article PMC11988800, “A Comprehensive In Vitro and In Silico Approach for Targeting 4-Hydroxyphenyl Pyruvate Dioxygenase: Towards New Therapeutics for Alkaptonuria” (International Journal of Molecular Sciences, 2025).

By UniProt entry, the sequences of proteins in these tests, tags left out. Where a name states a change or a piece, a line headed by the entry shows the natural chain unless it says otherwise.
UniProt P32754: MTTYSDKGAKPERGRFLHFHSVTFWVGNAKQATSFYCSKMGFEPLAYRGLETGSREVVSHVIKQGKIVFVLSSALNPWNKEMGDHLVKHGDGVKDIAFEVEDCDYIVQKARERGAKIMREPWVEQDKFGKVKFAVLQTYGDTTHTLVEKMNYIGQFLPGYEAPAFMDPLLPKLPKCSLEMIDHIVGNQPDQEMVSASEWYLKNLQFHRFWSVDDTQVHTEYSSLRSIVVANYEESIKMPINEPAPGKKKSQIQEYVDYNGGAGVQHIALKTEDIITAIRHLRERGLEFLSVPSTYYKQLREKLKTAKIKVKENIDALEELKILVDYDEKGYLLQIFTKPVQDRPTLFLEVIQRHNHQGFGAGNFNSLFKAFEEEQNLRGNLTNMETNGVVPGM

Target: human 4-HPPD (Homo sapiens, UniProt P32754)
Test: Residence time evaluation by optimized jump dilution method in recombinant E. coli expressing human 4-HPPD

Q: Which koff does the source give for O=C1CCCC(=O)C1C(=O)c1ccc(C(F)(F)F)cc1[N+](=O)[O-] [NTBC, Nitisinone] here?
A: Its koff is 0.000167 s⁻¹.

Q: What about the residence time of the same molecule?
A: The residence time was 103 ± 15.2 min.
